High-throughput results: PubChem BioAssay, National Center for Advancing Translational Sciences (NCATS)
PGK inhibitor: qHTS Assay to Find Inhibitors of Phosphoglycerate Kinase. actives 0.043% (n = 380,000). Phosphoglycerate kinase, glycosomal (Trypanosoma brucei brucei), P07378. Potency, µM (series often up to 57.5 µM), inactives show at the top dose activity change, negative = inhibition, hits mostly inhibitors. PGK/GAPDH coupled, Kinase-Glo luminescence, 60 min; further: potency means the concentration at half of the fitted maximal effect; on the % scale 0 is the no-effect control and ±100 the full control effect; nearly all actives have a fitted effect of over 60% in size
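Recombinant glycosomal PGK reaction used 1,3-bisphosphoglycerate generated in-well by GAPDH (100nM final) in 100mM TEA pH 7.6, 5mM MgCl2, 0.01% Tween-20. After 60 minutes at room temperature, ATP was read by Kinase-Glo Plus luminescence end-point.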
Rango complex inh: qHTS Assay for Inhibitors of Rango (Ran-regulated importin-beta cargo) - Importin beta complex formation. Importin subunit beta-1 (Homo sapiens), Q14974. Rango CFP/YFP FRET sensor + importin beta, 45 min. Potency, µM (titrated, usually from 92.2 µM), for inactives: top-dose inhibition of complex formation. actives 0.031% (n = 340,000). AID 540263, 2011; calls by dose curve;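 further: potency means the concentration at half of the fitted maximal effect; 0% = DMSO wells and 100% = buffer wells lacking importin beta; nearly all actives have a fitted effect of over 15% in size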
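Inhibition scored from the CFP 486 nm/YFP 530 nm FRET ratio 45 min after adding 0.125 microM importin beta to 50 nM Rango biosensor preincubated 5 min with compound (room temperature, PBS with DTT, Tween-20, BSA). No-importin wells as positive control.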
Rango dissoc inh: qHTS Assay for Inhibitors of RanGTP induced Rango (Ran-regulated importin-beta cargo) - Importin beta complex dissociation; Biochemical FRET Rango-importin beta, RanGTP-induced dissociation; Potency, µM (series often up to 46.1 µM), for inactives: top-dose activity change, negative = inhibition; actives 0.071% (n = 340,000); calls by dose curve; further: potency means the concentration at half of the fitted maximal effect; % of control where 0% means no effect; nearly all actives have a fitted effect of over 45% in size
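FRET read at 45 min, room temperature: inhibitors block the CFP/YFP signal rise when RanGTP (0.6 uM Ran, 2 mM GTP, 0.2 uM RCC1) frees Rango (0.1 uM) from importin beta (0.25 uM). Pre-read after 5 min compound exposure flags interference.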
ELG1 DNA repair: qHTS screen for small molecules that inhibit ELG1-dependent DNA repair in human embryonic kidney (HEK293T) cells expressing luciferase-tagged ELG1. HEK293T ELG1-luciferase reporter, luminescence, 16 h; DNA damage induced by 5-fluorouridine. Potency, µM (top dose mostly 46.1 µM), for inactives: at the highest dose activity change, negative = inhibition, usual class: inhibitors. actives 2.3% (n = 330,000); further: potency means the concentration at half of the fitted maximal effect; on the % scale 0 is the no-effect control and ±100 the full control effect; nearly all actives have a fitted effect of over 55% in size
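In this reporter screen, reduction of luminescence relative to DMSO vehicle indicated activity. Compounds and 5-fluorouridine were added together to 2,000 cells per well, incubated for 16 hr at 37 °C, then developed with ONE-Glo.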
Tb PFK inh: qHTS Assay to Find Inhibitors of T. brucei phosphofructokinase | T. brucei PFK, ADP-Glo luminescence | ATP-dependent 6-phosphofructokinase (Trypanosoma brucei brucei), O15648 | Potency, µM (top dose mostly 57.5 µM), inactives show at the top dose activity, negative = inhibition, hits mostly inhibitors | actives 0.17% (n = 330,000);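 further: potency means the concentration at half of the fitted maximal effect; 0% = uninhibited 1x PFK enzyme wells and -100% = no-enzyme wells; nearly all actives have a fitted effect of over 60% in size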
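Activity is normalized to no-enzyme wells (full inhibition) and 1.25 nM enzyme wells (no inhibition). Reaction: 0.5 mM F6P, 0.1 mM ATP, 45 min RT, ADP-Glo luminescence; concentration-response curves fitted and classed by quality.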
PKM2 activator: qHTS Assay for Activators of Human Muscle isoform 2 Pyruvate Kinase; AID 1631, 2009; Potency, µM (highest dose often 57.5 µM), for the others: top-dose activation, actives largely listed as activators; Pyruvate kinase PKM (Homo sapiens), P14618; actives 0.34% (n = 260,000); purified PKM2, Kinase-Glo ATP luminescence, activation; response scale: 0% is enzyme alone, no compound; further: potency means the concentration at half of the fitted maximal effect; on the % scale 0 is the no-effect control and ±100 the full control effect; nearly all actives have a fitted effect of over 55% in size
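ATP formation by purified human PK-M2, quantified via coupled luciferase luminescence after 1 h at room temperature with 0.1 mM ADP and 0.5 mM PEP final.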
HeLa viability: Secondary assay for Activators of Human Pyruvate Kinase M2 isoform - Cell Titer Glo cytotoxicity assay; shares compounds with PKM2 activator; HeLa viability, CellTiter-Glo ATP luminescence, 24 h; activity change, negative = cytotoxicity, % at 57.5 µM; 230 tested, under 10 active; AID 1898, 2009; further: % of control where 0% means no effect
* marks the source's active call; other numbers are inactive results; i = inactive; ? = inconclusive; . = not tested or not shown; ! = a repeat was not active; [ ] = dose if it differs, or a comment. Rows were chosen to be rich in hits. Some 2.4% of all compounds tested hit in one or more screens of this group. Unless noted, the call rests on the fitted dose curve; in most records, active means well fitted curve in the direction sought with a large enough effect; inconclusive means small, poorly fitted or top-dose-only effect, or another doubt; inactive means no such curve, though single readings can be large; an effect the other way counts as inactive or inconclusive.

The chains behind the UniProt entries cited, without tags or fusion partners.
Importin subunit beta-1 (Homo sapiens), Q14974, UniProt Q14974, whole entry, looked up: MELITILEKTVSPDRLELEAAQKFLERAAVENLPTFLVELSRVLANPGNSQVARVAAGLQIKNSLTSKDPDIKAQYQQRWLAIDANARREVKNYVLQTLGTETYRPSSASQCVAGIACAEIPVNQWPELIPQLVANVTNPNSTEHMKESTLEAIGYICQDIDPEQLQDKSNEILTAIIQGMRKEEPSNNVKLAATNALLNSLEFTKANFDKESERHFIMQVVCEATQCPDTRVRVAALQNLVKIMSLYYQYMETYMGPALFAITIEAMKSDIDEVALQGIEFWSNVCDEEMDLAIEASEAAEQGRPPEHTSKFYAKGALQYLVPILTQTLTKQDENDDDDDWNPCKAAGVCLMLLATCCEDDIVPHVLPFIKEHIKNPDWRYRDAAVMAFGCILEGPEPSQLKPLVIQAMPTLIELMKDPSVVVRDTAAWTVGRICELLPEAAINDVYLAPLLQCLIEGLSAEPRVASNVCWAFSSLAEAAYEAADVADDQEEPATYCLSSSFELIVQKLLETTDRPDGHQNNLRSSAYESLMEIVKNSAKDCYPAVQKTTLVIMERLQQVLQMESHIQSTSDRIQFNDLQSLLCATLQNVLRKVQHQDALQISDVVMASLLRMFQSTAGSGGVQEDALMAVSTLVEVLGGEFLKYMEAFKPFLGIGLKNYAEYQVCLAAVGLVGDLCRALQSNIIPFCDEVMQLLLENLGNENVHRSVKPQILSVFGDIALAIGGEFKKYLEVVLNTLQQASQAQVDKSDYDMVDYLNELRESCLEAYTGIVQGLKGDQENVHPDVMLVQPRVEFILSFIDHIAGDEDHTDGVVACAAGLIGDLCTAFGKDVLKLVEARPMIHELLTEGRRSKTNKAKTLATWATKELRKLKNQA
Pyruvate kinase PKM (Homo sapiens), P14618, UniProt P14618, whole entry, looked up: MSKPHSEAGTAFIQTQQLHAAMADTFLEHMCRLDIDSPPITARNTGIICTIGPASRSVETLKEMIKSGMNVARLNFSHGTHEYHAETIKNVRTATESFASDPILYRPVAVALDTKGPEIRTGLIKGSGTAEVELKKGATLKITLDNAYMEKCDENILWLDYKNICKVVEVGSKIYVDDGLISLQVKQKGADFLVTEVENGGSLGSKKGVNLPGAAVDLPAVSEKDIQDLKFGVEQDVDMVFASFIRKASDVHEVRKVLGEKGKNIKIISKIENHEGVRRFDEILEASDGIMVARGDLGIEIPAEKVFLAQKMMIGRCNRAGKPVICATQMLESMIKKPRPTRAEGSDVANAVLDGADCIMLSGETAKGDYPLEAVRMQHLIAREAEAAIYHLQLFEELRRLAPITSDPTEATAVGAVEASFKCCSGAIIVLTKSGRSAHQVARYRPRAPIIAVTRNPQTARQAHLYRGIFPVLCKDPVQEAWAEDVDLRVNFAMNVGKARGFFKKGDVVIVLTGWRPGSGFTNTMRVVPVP

item	mol	PGK inhibitor	Rango complex inh	Rango dissoc inh	ELG1 DNA repair
1	O=C(COC(=O)COc1ccccc1)NCCC1=CCCCC1	i	2%	-2%	16%
2	NC(=NCCCCCCN=C(N)/N=C(\N)Nc1ccc(Cl)cc1)/N=C(\N)Nc1ccc(Cl)cc1	-3%	52µM*!	?	-10%
3	FC(F)(F)c1cc(-c2ccc(Cl)cc2)nc(NCc2cccnc2)n1	-5%	3%	?	21µM*
4	COc1ccc(-c2cc(C(F)(F)F)nc(NCc3ccc(Cl)cc3)n2)cc1	-1%	.	.	.
5	Cc1ccc(-c2ccc(=O)n(CC(=O)NCCc3ccc(Cl)cc3)n2)cc1	i	.	.	.
6	CCOc1ccc(CCNC(=O)c2nn(C)c3c2CS(=O)(=O)c2ccccc2-3)cc1OCC	-2%	3%	-13%	18µM*
7	COCCCNC(=O)c1nn(C)c2c1CS(=O)(=O)c1ccccc1-2	6%	.	.	.
8	COc1ccc(CCNC(=O)c2nn(C)c3c2CS(=O)(=O)c2ccccc2-3)c(OC)c1	-4%	-1%	-6%	23µM*
9	CCOc1ccc(CCNC(=O)c2nn(C)c3c2CS(=O)(=O)c2ccccc2-3)cc1	-3%	-4%	-4%	?
10	CC1CCCC(NC(=O)CN2C(=O)NC(c3ccccc3)(c3ccccc3)C2=O)C1C (stereo not drawn)	-1%	-3%	0%	?
11	Cc1ccc(S(=O)(=O)N2CCCCC2)cc1NC(=O)c1cncc(Br)c1	-1%	1%	3%	5.8µM*
12	O=C(Nc1cccc(S(=O)(=O)N2CCCCCC2)c1)c1cncc(Br)c1	-2%	-2%	9%	?
13	Cc1ccc(S(=O)(=O)N(C)C)cc1NC(=O)c1cncc(Br)c1	0%	2%	13%	15µM*
14	COc1ccc(NC(=O)c2cccnc2Cl)c(S(=O)(=O)N2CCOCC2)c1	-1%	2%	10%	0%
15	COc1ccc(NC(=O)c2cncc(Br)c2)c(S(=O)(=O)N2CCOCC2)c1	-2%	2%	-9%	11µM*

item	Tb PFK inh	PKM2 activator	HeLa viability
1	1%	.	.
2	2%	-26%	.
3	-5%	10%	.
4	.	.	.
5	.	.	.
6	2%	.	.
7	.	.	.
8	-2%	1%[0.46 µM]	.
9	0%	8%[0.46 µM]	.
10	8%	.	.
11	0%	.	.
12	-2%	.	.
13	3%	-11%	.
14	-2%	3%	.
15	-2%	-1%	.

Following part.
item	mol	PGK inhibitor	Rango complex inh	Rango dissoc inh	ELG1 DNA repair
16	CCOC(=O)[C@@H]1[C@H]2COc3ccc(Br)cc3[C@@H]2N2C(=O)N(c3ccc(Cl)cc3)C(=O)[C@@]12C	-8%	3%	-15%	10%
17	Cc1nc2nc(SCC(=O)NCc3ccccc3)nn2c(C)c1Cc1ccccc1Cl	-5%	.	.	.
18	CC(C)(C)c1ccc(C(=O)NC2=NC(c3cccc(F)c3)CC(=O)N2)cc1 (stereo not drawn)	-7%	.	.	.
19	O=S(=O)(Nc1nc2c(s1)CCCC2)c1ccc(F)cc1	-9%	-2%	-2%	?
20	COc1ccc(S(=O)(=O)Nc2nc3c(s2)CCCC3)cc1	5%	3%	1%	1%
21	Cn1c2cc([N+](=O)[O-])sc2c2cnn(Cc3ccccc3F)c(=O)c21	.	.	.	.
22	COC(=O)c1cc2c(s1)c1cnn(Cc3ccccc3F)c(=O)c1n2C	.	.	.	.
23	CC(O)c1cc2c(s1)c1cnn(Cc3ccccc3F)c(=O)c1n2C (stereo not drawn)	5%	0%	-4%	16%
24	Cn1c2cc(Br)sc2c2cnn(Cc3ccc(F)cc3F)c(=O)c21	2%	3%	?	?
25	Cn1c2cc(B(O)O)sc2c2cnn(Cc3ccc(F)cc3F)c(=O)c21	.	.	.	.
26	CC(C)c1cc2c(s1)c1cnn(Cc3ccccc3F)c(=O)c1n2C	.	.	.	.
27	C[C@H](c1ccccc1)n1nnc(COCc2ccccc2)c1C#CCOCc1ccccc1	-5%	0%	5%	5%
28	CCOc1ccc(N(CC(=O)NC2CC2)S(=O)(=O)c2ccc(C)cc2)cc1	-3%	3%	-6%	9%
29	Cn1c2cc(C#N)sc2c2cnn(Cc3ccccc3F)c(=O)c21	.	.	.	.
30	Cn1c2ccsc2c2cnn(Cc3ccccc3F)c(=O)c21	.	.	.	.

item	Tb PFK inh	PKM2 activator	HeLa viability
16	1%	.	.
17	.	.	.
18	.	.	.
19	-1%	?	.
20	1%	5µM*	-27
21	-5%	.	15
22	1%	.	2[23.3 µM]
23	0%	.	-11
24	-2%	.	.
25	-16%	.	.
26	.	.	?
27	4%	-2%	.
28	-2%	-1%	.
29	.	.	-5
30	.	.	15

More entries
item	mol	PGK inhibitor	Rango complex inh	Rango dissoc inh	ELG1 DNA repair
31	Cc1ccc(NC(=O)CSC2=C(C#N)C(c3ccco3)C3=C(CCCC3=O)N2)cc1 (stereo not drawn)	-9%	-6%	-21%	?
32	COc1ccc(C(=O)/C=C/C(=O)N(CC(=O)NC2CCCCC2)Cc2ccccc2)c(O)c1	-7%	1%	-13%	?
33	COc1ccc(-c2nc3c4ccccc4n(CC(=O)N4CCN(c5ccc(F)cc5)CC4)c(=O)n3n2)cc1	-9%	.	.	.
34	COc1ccc(Br)cc1S(=O)(=O)Nc1ncccc1C	-3%	4%	8%	-5%
35	CC(=O)N(c1ccccc1)C1SC(=O)N(c2ccccc2)C1=O (stereo not drawn)	i	1%	-13%	-18%
36	O=C(CC1SC(=O)N(c2ccccc2)C1=O)Nc1ccccc1 (stereo not drawn)	-4%	0%	-10%	17%
37	NC(=O)CC(NC(=O)Cc1ccc(Cl)cc1)c1ccc(NCCc2ccccc2F)c([N+](=O)[O-])c1 (stereo not drawn)	-2%	4%	-2%	-3%
38	NC(=O)CC(NC(=O)Cc1ccc(Cl)cc1)c1ccc(NCC2CC2)c([N+](=O)[O-])c1 (stereo not drawn)	i	6%	-4%	-1%
39	CCc1c(C(=O)NCc2ccccc2Cl)[nH]c(C)c1C(C)=O	i	-3%	2%	?
40	CC(=O)c1c(C)[nH]c(C(=O)NCc2ccccc2Cl)c1C	0%	5%	-11%	3%

item	Tb PFK inh	PKM2 activator	HeLa viability
31	0%	4.5µM*	-3
32	-6%	3.5µM*	?
33	.	.	.
34	1%	6.3µM*	0
35	-24%	0.56µM*	0
36	-19%	1%	.
37	-3%	4µM*	-9
38	4%	21%	.
39	0%	2%	.
40	0%	7.9µM*	-3

Molecules from the list above with a nitro group on carbon (3):
item	mol	PGK inhibitor	Rango complex inh	Rango dissoc inh	ELG1 DNA repair
21	Cn1c2cc([N+](=O)[O-])sc2c2cnn(Cc3ccccc3F)c(=O)c21	.	.	.	.
37	NC(=O)CC(NC(=O)Cc1ccc(Cl)cc1)c1ccc(NCCc2ccccc2F)c([N+](=O)[O-])c1 (stereo not drawn)	-2%	4%	-2%	-3%
38	NC(=O)CC(NC(=O)Cc1ccc(Cl)cc1)c1ccc(NCC2CC2)c([N+](=O)[O-])c1 (stereo not drawn)	i	6%	-4%	-1%

item	Tb PFK inh	PKM2 activator	HeLa viability
21	-5%	.	15
37	-3%	4µM*	-9
38	4%	21%	.
